Target: Aldo-keto reductase family 1 member B1 (Bos taurus, UniProt P16116)
Assay: Evaluated for inhibition of Aldose reductase 2
In short: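 Calf lens ALR2, partially purified by DE-52 (6.5 mU/mg), at 3.5 mU/mL. Assay at 37 °C with 4.7 mM D,L-glyceraldehyde and 0.11 mM NADPH in 0.25 M sodium phosphate, pH 6.8, with 0.38 M ammonium sulfate. Inhibitor in DMSO (1% final). A340 decrease corrected by a no-substrate blank.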

- IC50: 96 nM
Structure (SMILES): COc1ccc2c(C(=S)N(C)CC(=O)O)cccc2c1C(F)(F)F [TOLRESTAT]

Reference: ChEMBL document CHEMBL1129380, “Synthesis, activity, and molecular modeling of a new series of tricyclic pyridazinones as selective aldose reductase inhibitors” (J Med Chem, 1996)
